Test results as given in US20220211796A1, “PEPTIDE ANTIBIOTICS AND METHODS OF USE THEREOF” (priority 2019, published 2022).
Converted amounts (≈) assume the structure as drawn.

Tests used:
[1] = system: E. coli ATCC 25992; conditions: Table 5
Experimental: (§1) The L-peptides identified from five different phage display libraries were catalogued as described previously and selected sequences were synthesized in D-enantiomeric form by SPPS for further investigation in several biological assays.
(§2) MICs were determined according to a 96-well microdilution protocol outlined by the Clinical and Laboratory Standard Institute (CLSI) guideline with modifications for peptide antibiotics reported by Wiegand et al.^35 Two-fold serial peptide dilutions were performed to go from 2560 μg/ml to 5 μg/ml in0.2% BSA and 0.01% acetic acid buffer in 96-well polypropylene plates (COSTAR, #3879). Dilution of bacterial suspensions (1:200) of different bacterial strains that were grown until 0.5 McFarland standard were prepared to obtain a final inoculum concentration of 8×10^5 CFU/ml in Mueller-Hinton broth.

[2] = system: low level vancomycin resistant E. faecium (vanB) ATCC 51299; conditions: Table 5; low level vancomycin resistant E. faecium ATCC 51299
Experimental: as §1, §2

[3] = system: E. faecalis ATCC 29121; conditions: Table 5
Experimental: as §1, §2

[4] = system: B. subtilis ATCC 6633; conditions: Table 5
Experimental: as §1, §2

[5] = system: high level vancomycin resistant E. faecium (vanA) ATCC 51559; conditions: Table 5; high level vancomycin resistant E. faecium ATCC 51559
Experimental: as §1, §2

[6] = system: S. aureus ATCC 6538; conditions: Table 5
Experimental: as §1, §2

[7] = system: Methicillin-resistant S. aureus (MRSA) ATCC 43300; conditions: Table 5
Experimental: as §1, §2

## CC[C@H](C)[C@H](NC(=O)CN)C(=O)NCC(=O)N[C@@H](C)C(=O)N[C@H](C(=O)N[C@@H](CC(C)C)C(=O)N[C@@H](CCCCN)C(=O)N[C@H](C(=O)N[C@@H](CC(C)C)C(=O)N[C@H](C(=O)N[C@H](C(=O)NCC(=O)N[C@@H](CC(C)C)C(=O)N1CCC[C@H]1C(=O)N[C@@H](C)C(=O)N[C@@H](CC(C)C)C(=O)N[C@H](C(=O)N[C@@H](CO)C(=O)N[C@@H](Cc1c[nH]c2ccccc12)C(=O)N[C@H](C(=O)N[C@@H](CCCCN)C(=O)N[C@@H](CCCNC(=N)N)C(=O)N[C@@H](CCCCN)C(=O)N[C@@H](CCCNC(=N)N)C(=O)N[C@@H](CCC(N)=O)C(=O)N[C@@H](CCC(N)=O)C(N)=O)[C@@H](C)CC)[C@@H](C)CC)[C@@H](C)O)[C@@H](C)O)C(C)C)C(C)C [P2, Melittin, reference compound]
[1]
  MIC E. coli: 32 mg/L (≈ 11.2 µM)
[2]
  MIC VRE (vanB): 32 mg/L (≈ 11.2 µM)
[3]
  MIC E. faecalis: 8 mg/L (≈ 2.81 µM)
[4]
  MIC B. subtilis: 2 mg/L (≈ 0.703 µM)
[5]
  MIC VRE (vanA): 32 mg/L (≈ 11.2 µM)
[6]
  MIC S. aureus: 2 mg/L (≈ 0.703 µM)
[7]
  MIC MRSA: 4 mg/L (≈ 1.41 µM)
